Source: US9440982B2 (Eolas Therapeutics, Inc., priority 2012, dated 2016)
Read-outs that look alike come from different tables or passages of the source.

Sequences of proteins named here, by UniProt entry; tags and fusion partners are left off.
UniProt O43614, whole entry: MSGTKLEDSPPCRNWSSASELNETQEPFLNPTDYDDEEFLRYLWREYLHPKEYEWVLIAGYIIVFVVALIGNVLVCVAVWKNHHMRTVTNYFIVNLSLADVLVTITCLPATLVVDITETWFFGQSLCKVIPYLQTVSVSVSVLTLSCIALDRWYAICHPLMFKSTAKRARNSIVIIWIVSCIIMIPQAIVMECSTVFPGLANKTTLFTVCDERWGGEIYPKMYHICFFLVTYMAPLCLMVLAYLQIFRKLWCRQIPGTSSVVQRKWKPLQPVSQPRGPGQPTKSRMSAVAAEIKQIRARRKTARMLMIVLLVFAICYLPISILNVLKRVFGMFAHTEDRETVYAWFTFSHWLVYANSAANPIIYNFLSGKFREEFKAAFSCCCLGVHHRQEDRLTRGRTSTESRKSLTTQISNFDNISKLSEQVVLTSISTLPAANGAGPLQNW
UniProt O43613, whole entry: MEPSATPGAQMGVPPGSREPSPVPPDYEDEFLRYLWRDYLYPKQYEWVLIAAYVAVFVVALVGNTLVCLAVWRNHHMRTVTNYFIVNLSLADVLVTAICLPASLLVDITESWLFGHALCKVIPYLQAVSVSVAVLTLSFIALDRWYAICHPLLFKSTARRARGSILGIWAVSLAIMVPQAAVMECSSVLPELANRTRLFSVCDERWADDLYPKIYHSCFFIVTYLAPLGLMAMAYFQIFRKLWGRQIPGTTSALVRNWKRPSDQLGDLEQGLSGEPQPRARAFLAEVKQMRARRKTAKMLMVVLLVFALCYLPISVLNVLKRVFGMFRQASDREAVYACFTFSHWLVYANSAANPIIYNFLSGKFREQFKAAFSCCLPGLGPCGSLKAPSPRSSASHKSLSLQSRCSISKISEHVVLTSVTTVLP

Experiments:
OX2 = target: T1, OX2 (Homo sapiens, UniProt O43614); assay: Orexin receptor cell-based functional assay, [Ca2+]i by FLIPR, CHO-OX2 cells
T1 construct: expressed in transfected cells; host or cells: CHO (CHO-OX2, kept under selection antibiotic)

OX1 = target: T2, OX1 (Homo sapiens, UniProt O43613); assay: Orexin receptor cell-based functional assay, [Ca2+]i by FLIPR, CHO-OX1 cells
T2 construct: expressed in transfected cells; host or cells: CHO (CHO-OX1, kept under selection antibiotic)

[1] = CHO-OX1 cells, [Ca2+]i by FLIPR, antagonist dose-range 0.1 nM-10 μM, EC90 of OXA, read-out: OX1
[2] = Table 6, racemate vs enantiomers, read-out: OX1 IC50

Compound `Cc1ccc(-c2cnn(C)c2)c(C(=O)N2CCC[C@@H](C)[C@H]2CNc2ccc(C(F)(F)F)cn2)c1` [Example A1, ((2S,3R)-3-Methyl-2-(((5-(trifluoromethyl)pyridin-2-yl)amino)methyl)piperidin-1-yl)(5-methyl-2-(1-methyl-1H-pyrazol-4-yl)phenyl)methanone] has an IC50 (OX2; Table 6, racemate vs enantiomers, read-out: OX2 IC50) of 4000 nM, an IC50 (OX1; [1]) of 2 nM and an IC50 (OX1; [2]) of 2 nM.
`Cc1ccc(-c2cnn(C)c2)c(C(=O)N2CCC[C@@H](C)[C@H]2CNc2nc3cc(Cl)ccc3o2)c1` [Example A40, ((2S,3R)-2-(((5-Chlorobenzo[d]oxazol-2-yl)amino)methyl)-3-methylpiperidin-1-yl)(5-methyl-2-(1-methyl-1H-pyrazol-4-yl)phenyl)methanone] gave an IC50 (OX2; CHO-OX2 cells, [Ca2+]i by FLIPR, antagonist dose-range 0.1 nM-10 μM, EC90 of OXA, read-out: OX2) of 900 nM.
With `Cc1ccc(-c2ncccn2)c(C(=O)N2CCC(F)(F)C[C@H]2CNc2ncc(C(F)(F)F)cn2)c1` [Example A312, (S)-(4,4-Difluoro-2-(((5-(trifluoromethyl)pyrimidin-2-yl)amino)methyl)piperidin-1-yl)(5-methyl-2-(pyrimidin-2-yl)phenyl)methanone] the IC50 (OX1; [1]) was 144 nM.
For `Cc1ccc(-c2cnn(C)c2)c(C(=O)N2CCC[C@H](C)[C@@H]2CNc2ccc(C(F)(F)F)cn2)c1` [Example A315, ((2R,3S)-3-Methyl-2-(((5-(trifluoromethyl)pyridin-2-yl)amino)methyl)piperidin-1-yl)(5-methyl-2-(1-methyl-1H-pyrazol-4-yl)phenyl)methanone], the IC50 (OX1; [1]) was 2500 nM and the IC50 (OX1; [2]) was 2500 nM.
With `COc1ccc(-n2nccn2)c(C(=O)N2CCC[C@@H](C)[C@H]2CNc2ccc(C(F)(F)F)cn2)c1F` [Example A338, (2-Fluoro-3-methoxy-6-(2H-1,2,3-triazol-2-yl)phenyl)((2S,3R)-3-methyl-2-(((5-(trifluoromethyl)pyridin-2-yl)amino)methyl)piperidin-1-yl)methanone] the IC50 (OX1; [1]) was < 10 nM.
